{"source": "ChEMBL document CHEMBL3425427", "about": "“Pyrido[4,3-e][1,2,4]triazolo[4,3-a]pyrazines as Selective, Brain Penetrant Phosphodiesterase 2 (PDE2) Inhibitors” (ACS Med Chem Lett, 2015)", "molecular_target": "T1, cAMP and cAMP-inhibited cGMP 3',5'-cyclic phosphodiesterase 10A (Rattus norvegicus, UniProt Q9QYJ6)", "T1 sequence (Q9QYJ6 whole entry)": "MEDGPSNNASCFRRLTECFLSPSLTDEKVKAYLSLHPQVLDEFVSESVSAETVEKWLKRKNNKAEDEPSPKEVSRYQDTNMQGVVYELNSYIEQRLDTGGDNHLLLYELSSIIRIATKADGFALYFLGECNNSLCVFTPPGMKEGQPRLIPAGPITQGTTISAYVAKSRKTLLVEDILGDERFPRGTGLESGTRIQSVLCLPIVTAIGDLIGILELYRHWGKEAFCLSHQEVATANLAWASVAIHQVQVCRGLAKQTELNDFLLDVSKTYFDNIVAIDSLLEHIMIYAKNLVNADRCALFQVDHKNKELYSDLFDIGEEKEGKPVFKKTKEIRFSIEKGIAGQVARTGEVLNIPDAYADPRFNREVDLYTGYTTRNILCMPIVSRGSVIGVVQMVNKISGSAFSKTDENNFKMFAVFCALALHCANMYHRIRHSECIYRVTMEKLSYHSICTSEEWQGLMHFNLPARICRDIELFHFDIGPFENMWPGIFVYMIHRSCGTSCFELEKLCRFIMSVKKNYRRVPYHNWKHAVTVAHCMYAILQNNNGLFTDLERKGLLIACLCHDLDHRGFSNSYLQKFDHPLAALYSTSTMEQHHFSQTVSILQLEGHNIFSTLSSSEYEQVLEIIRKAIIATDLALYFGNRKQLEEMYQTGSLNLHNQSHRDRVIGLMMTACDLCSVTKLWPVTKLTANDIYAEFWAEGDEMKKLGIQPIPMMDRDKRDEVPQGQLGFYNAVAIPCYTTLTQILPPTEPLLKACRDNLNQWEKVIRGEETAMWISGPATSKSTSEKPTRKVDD", "assay": "Inhibition of 6-His-tagged rat recombinant PDE10A expressed in Sf9 cells using [3H]cAMP incubated for 60 mins by scintillation proximity assay", "data": [{"smiles": "CCCCOc1ccc(Cl)c(-c2nnc3c(C)nc4ccncc4n23)c1", "values": [{"measurement": "IC50", "value": 5.5, "unit": "µM"}]}]}
